Molecular target: T1, NT receptors (NTR) (Homo sapiens, UniProt P30989)
T1 construct: HT29 human adenocarcinoma cell membranes, that over-express NTR; endogenous in cells; host or cells: HT29 human colon adenocarcinoma cell membranes
Test: Inhibition of 125I-NT binding to HT29 cell membranes
Details: displacement of 125I-NT, HT29 human adenocarcinoma cell membranes

Protein sequences, listed by entry. Tags and fused reporters are not part of them.
UniProt P30989, whole entry: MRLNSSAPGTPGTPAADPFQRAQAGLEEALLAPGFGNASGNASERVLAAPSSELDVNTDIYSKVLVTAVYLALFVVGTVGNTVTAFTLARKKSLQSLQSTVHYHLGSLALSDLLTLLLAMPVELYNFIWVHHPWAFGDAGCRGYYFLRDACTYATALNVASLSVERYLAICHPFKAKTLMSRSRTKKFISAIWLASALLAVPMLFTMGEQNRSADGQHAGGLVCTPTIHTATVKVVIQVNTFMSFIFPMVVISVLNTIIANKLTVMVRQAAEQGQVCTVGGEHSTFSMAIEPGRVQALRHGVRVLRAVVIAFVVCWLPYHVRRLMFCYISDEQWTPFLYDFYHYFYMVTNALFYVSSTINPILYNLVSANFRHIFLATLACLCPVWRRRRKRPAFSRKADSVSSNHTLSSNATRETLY

For “tetrameric NT(8-13)4-PEG-Tetramethyl rhodamine [NT4(8-13)-TMR]”, the IC50 was 0.02 µM.

Reference: EP1991561B1, “BRANCHED MULTIMERIC PEPTIDES FOR TUMOR DIAGNOSIS AND THERAPY” (Universita' Degli Studi di Siena, priority 2006, dated 2007)
